This assay addresses Recombinant Human TMPRSS2 (Homo sapiens, UniProt O15393). The assay is described as follows: TMPRSS2 mass spectrometry detection biochemical assay (Cbz-SKPSKRSFIED substrate). Conditions: read-out: Biochemical (mass spectrometry) AC50; 10 μM peptide, 0.4 μM TMPRSS2, 1 h RT; N/D = Not Detected.

The chains behind the UniProt entries cited, without tags or fusion partners. Residues count along the entry.
UniProt O15393, 106-492 limits assumed: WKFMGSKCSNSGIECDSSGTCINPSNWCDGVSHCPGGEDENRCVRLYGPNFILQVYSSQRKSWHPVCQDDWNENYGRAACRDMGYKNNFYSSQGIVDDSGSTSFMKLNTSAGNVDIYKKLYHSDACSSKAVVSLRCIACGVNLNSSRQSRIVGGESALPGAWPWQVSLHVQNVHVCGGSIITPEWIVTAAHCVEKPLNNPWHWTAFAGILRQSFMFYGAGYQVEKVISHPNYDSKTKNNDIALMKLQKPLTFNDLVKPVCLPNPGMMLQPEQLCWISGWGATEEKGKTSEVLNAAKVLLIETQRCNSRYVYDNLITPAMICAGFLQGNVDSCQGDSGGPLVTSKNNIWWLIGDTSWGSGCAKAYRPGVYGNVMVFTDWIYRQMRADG

On to `COc1ccc(CC(=O)NC(NC(=NC#N)Nc2cccc3ncccc23)C(C)(C)C)cc1OC` (stereo not shown), for which the AC50 stood at 39.5 µM.

As a reminder, the AC50 is the concentration giving half of the maximal activity seen.
